The compounds below were run against C-Raf FL (full-length C-Raf protein, Y340E and Y341E activating mutations) (Homo sapiens (Human), UniProt P04049, Y340E/Y341E). Settings: AlphaScreen, 60 min pre-incubation, reaction 1 hour at room temperature; read-out: c-Raf FL IC-50.
Type: biochemical

Amino acid sequences for entries named in this document (tags omitted).
UniProt P04049, whole entry Y340E/Y341E: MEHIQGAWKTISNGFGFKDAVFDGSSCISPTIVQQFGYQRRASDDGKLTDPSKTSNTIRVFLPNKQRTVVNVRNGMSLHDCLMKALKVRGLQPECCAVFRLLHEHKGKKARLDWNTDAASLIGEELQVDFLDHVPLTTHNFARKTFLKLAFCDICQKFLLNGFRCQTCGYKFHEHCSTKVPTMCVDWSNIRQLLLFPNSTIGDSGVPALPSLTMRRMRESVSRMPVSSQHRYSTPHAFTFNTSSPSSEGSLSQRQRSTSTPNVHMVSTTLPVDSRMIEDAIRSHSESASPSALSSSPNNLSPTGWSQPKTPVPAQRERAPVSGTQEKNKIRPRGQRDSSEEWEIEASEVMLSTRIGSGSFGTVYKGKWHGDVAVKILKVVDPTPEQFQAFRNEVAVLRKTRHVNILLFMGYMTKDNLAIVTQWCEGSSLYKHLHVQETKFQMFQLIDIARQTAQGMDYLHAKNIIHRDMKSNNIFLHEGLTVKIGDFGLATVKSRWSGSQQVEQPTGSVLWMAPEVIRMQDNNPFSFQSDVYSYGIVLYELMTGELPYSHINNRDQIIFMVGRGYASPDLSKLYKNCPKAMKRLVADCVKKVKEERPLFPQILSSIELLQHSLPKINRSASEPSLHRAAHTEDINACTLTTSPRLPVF

Compound	IC50 [nM]
Cc1ncc(NC(=O)c2ccnc(C(C)(F)F)c2)cc1-c1cc(N2CCOCC2)c(OC(C)C)nn1 [Example 912, 2-(1,1-difluoroethyl)-N-(5-(6-isopropoxy-5-morpholinopyridazin-3-yl)-6-methylpyridin-3-yl)isonicotinamide]	0.65
Cc1ncc(NC(=O)c2ccnc(C(F)F)c2)cc1-c1cc(N2CCOCC2)c(OC(C)C)nn1 [Example 913, 2-(difluoromethyl)-N-(5-(6-isopropoxy-5-morpholinopyridazin-3-yl)-6-methylpyridin-3-yl)isonicotinamide]	0.69
Cc1ncc(NC(=O)c2cc(C(F)(F)F)ccn2)cc1-c1cc(N2CCOCC2)c(OCC(F)F)nn1 [Example 916, N-(5-(6-(2,2-difluoroethoxy)-5-morpholinopyridazin-3-yl)-6-methylpyridin-3-yl)-4-(trifluoromethyl)picolinamide]	0.39
Cc1ncc(NC(=O)c2cccc(C(F)(F)F)c2)cc1-c1cc(N2CCOCC2)c(OCC(F)F)nn1 [Example 918, N-(5-(6-(2,2-difluoroethoxy)-5-morpholinopyridazin-3-yl)-6-methylpyridin-3-yl)-3-(trifluoromethyl)benzamide]	0.37
Cc1ncc(NC(=O)c2ccnc(C(C)(F)F)c2)cc1-c1cc(N2CCOCC2)c(S(C)(=O)=O)nn1 [Example 920, 2-(1,1-difluoroethyl)-N-(6-methyl-5-(6-(methylsulfonyl)-5-morpholinopyridazin-3-yl)pyridin-3-yl)isonicotinamide]	1.99
Cc1ncc(NC(=O)c2ccnc(C(F)(F)F)c2)cc1-c1cc(N2CCOCC2)c(S(C)(=O)=O)nn1 [Example 921, N-(6-methyl-5-(6-(methylsulfonyl)-5-morpholinopyridazin-3-yl)pyridin-3-yl)-2-(trifluoromethyl)isonicotinamide]	1.82
CCC(F)(F)c1cc(C(=O)Nc2cnc(C)c(-c3cc(N4CCOCC4)c(S(C)(=O)=O)nn3)c2)ccn1 [Example 925, 2-(1,1-difluoropropyl)-N-(6-methyl-5-(6-(methylsulfonyl)-5-morpholinopyridazin-3-yl)pyridin-3-yl)isonicotinamide]	2.23
CCC(F)(F)c1cc(C(=O)Nc2ccc(C)c(-c3cc(N4CCOCC4)c(S(C)(=O)=O)nn3)c2)ccn1 [Example 926, 2-(1,1-difluoropropyl)-N-(4-methyl-3-(6-(methylsulfonyl)-5-morpholinopyridazin-3-yl)phenyl)isonicotinamide]	0.47
Cc1ccc(NC(=O)c2ccnc(C(C)(C)C#N)c2)cc1-c1cc(N2CCOCC2)c(S(C)(=O)=O)nn1 [Example 931, 2-(2-cyanopropan-2-yl)-N-(4-methyl-3-(6-(methylsulfonyl)-5-morpholinopyridazin-3-yl)phenyl)isonicotinamide]	0.77
Cc1ccc(NC(=O)c2ccnc(C(C)(C)O)c2)cc1-c1cc(N2CCOCC2)c(S(C)(=O)=O)nn1 [Example 932, 2-(2-hydroxypropan-2-yl)-N-(4-methyl-3-(6-(methylsulfonyl)-5-morpholinopyridazin-3-yl)phenyl)isonicotinamide]	1.83
Cc1ncc(NC(=O)c2cnnc(C3(C#N)CC3)c2)cc1-c1cnc(OCC(F)F)c(N2CCOCC2)c1 [Example 936, 6-(1-cyanocyclopropyl)-N-(6′-(2,2-difluoroethoxy)-2-methyl-5′-morpholino-[3,3′-bipyridin]-5-yl)pyridazine-4-carboxamide]	1.69
Cc1ncc(NC(=O)c2cccc(S(C)(=O)=O)c2)cc1-c1cnc(OC2CCOCC2)c(N2CCOCC2)c1 [Example 937, N-(2-methyl-5′-morpholino-6′-((tetrahydro-2H-pyran-4-yl)oxy)-[3,3′-bipyridin]-5-yl)-3-(methylsulfonyl)benzamide]	1.97

The remaining compounds from weak to strong by IC50, led by results:

IC50 [nM]	Compound
11	Cc1ncc(NC(=O)c2ccnc(C(C)(C)C#N)c2)cc1-c1cc(N2CCOCC2)c(S(C)(=O)=O)nn1 [Example 924, 2-(2-cyanopropan-2-yl)-N-(6-methyl-5-(6-(methylsulfonyl)-5-morpholinopyridazin-3-yl)pyridin-3-yl)isonicotinamide]
1.2	COc1ncc(-c2cc(NC(=O)c3cccc(C(F)(F)F)c3)nnc2C)cc1N1CCOCC1 [Example 934, N-(5-(6-methoxy-5-morpholinopyridin-3-yl)-6-methylpyridazin-3-yl)-3-(trifluoromethyl)benzamide]
1.07	Cc1ncc(NC(=O)c2cc(C(F)(F)F)ccn2)cc1-c1cc(N2CCOCC2)c(S(C)(=O)=O)nn1 [Example 923, N-(6-methyl-5-(6-(methylsulfonyl)-5-morpholinopyridazin-3-yl)pyridin-3-yl)-4-(trifluoromethyl)picolinamide]
0.91	Cc1ncc(NC(=O)c2cncc(C(F)(F)F)c2)cc1-c1cc(N2CCOCC2)c(OCC(F)F)nn1 [Example 917, N-(5-(6-(2,2-difluoroethoxy)-5-morpholinopyridazin-3-yl)-6-methylpyridin-3-yl)-5-(trifluoromethyl)nicotinamide]
0.88	Cc1ncc(NC(=O)c2cccc(C(F)(F)F)c2)cc1-c1cc(N2CCOCC2)c(S(C)(=O)=O)nn1 [Example 919, N-(6-methyl-5-(6-(methylsulfonyl)-5-morpholinopyridazin-3-yl)pyridin-3-yl)-3-(trifluoromethyl)benzamide]
0.7	CCC(F)(F)c1cc(C(=O)Nc2cnc(C)c(-c3cc(N4CCOCC4)c(OCC(F)F)nn3)c2)ccn1 [Example 914, N-(5-(6-(2,2-difluoroethoxy)-5-morpholinopyridazin-3-yl)-6-methylpyridin-3-yl)-2-(1,1-difluoropropyl)isonicotinamide]
0.58	Cc1ncc(NC(=O)c2cncc(C(F)(F)F)c2)cc1-c1cnc(OCC(F)F)c(N2CCOCC2)c1 [Example 935, N-(6′-(2,2-difluoroethoxy)-2-methyl-5′-morpholino-[3,3′-bipyridin]-5-yl)-5-(trifluoromethyl)nicotinamide]
0.55	Cc1ccc(NC(=O)c2ccnc(C(C)(C)F)c2)cc1-c1cc(N2CCOCC2)c(S(C)(=O)=O)nn1 [Example 928, 2-(2-fluoropropan-2-yl)-N-(4-methyl-3-(6-(methylsulfonyl)-5-morpholinopyridazin-3-yl)phenyl)isonicotinamide]
0.45	Cc1ncc(NC(=O)c2ccnc(C(C)(F)F)c2)cc1-c1cc(N2CCOCC2)c(OCC(F)F)nn1 [Example 915, N-(5-(6-(2,2-difluoroethoxy)-5-morpholinopyridazin-3-yl)-6-methylpyridin-3-yl)-2-(1,1-difluoroethyl)isonicotinamide]
0.33	Cc1ccc(NC(=O)c2ccnc(C(C)(F)F)c2)cc1-c1cc(N2CCOCC2)c(S(C)(=O)=O)nn1 [Example 929, 2-(1,1-difluoroethyl)-N-(4-methyl-3-(6-(methylsulfonyl)-5-morpholinopyridazin-3-yl)phenyl)isonicotinamide]
0.31	Cc1ccc(NC(=O)c2ccnc(C(F)(F)F)c2)cc1-c1cc(N2CCOCC2)c(S(C)(=O)=O)nn1 [Example 930]
0.22	Cc1ccc(NC(=O)c2cc(C(F)(F)F)ccn2)cc1-c1cc(N2CCOCC2)c(S(C)(=O)=O)nn1 [Example 933, N-(4-methyl-3-(6-(methylsulfonyl)-5-morpholinopyridazin-3-yl)phenyl)-4-(trifluoromethyl)picolinamide]
